Experimental data reported in paper PMC3391261, “Characteristic Features of Kynurenine Aminotransferase Allosterically Regulated by (Alpha)-Ketoglutarate in Cooperation with Kynurenine” (PLoS ONE, 2012).
Where two headings read alike, the source gives them in different places.

By UniProt entry, the sequences of proteins in these tests, tags left out.
UniProt O57946, entry or part of it: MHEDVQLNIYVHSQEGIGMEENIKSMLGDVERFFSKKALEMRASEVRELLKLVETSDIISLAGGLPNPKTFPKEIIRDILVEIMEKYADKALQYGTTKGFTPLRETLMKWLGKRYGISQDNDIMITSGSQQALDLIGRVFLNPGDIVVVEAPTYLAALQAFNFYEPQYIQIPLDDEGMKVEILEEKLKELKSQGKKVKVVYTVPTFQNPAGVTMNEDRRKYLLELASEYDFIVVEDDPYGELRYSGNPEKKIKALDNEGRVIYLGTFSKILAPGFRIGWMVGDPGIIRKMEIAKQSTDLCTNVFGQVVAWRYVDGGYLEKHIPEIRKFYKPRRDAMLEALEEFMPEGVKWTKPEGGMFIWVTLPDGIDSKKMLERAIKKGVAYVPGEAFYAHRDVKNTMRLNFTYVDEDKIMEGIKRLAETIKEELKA

What was measured:
PhKAT [1] = biological target: T1, PhKAT (Pyrococcus horikoshii, UniProt O57946); assay: KAT transaminase kinetics, KYNA production from KYN monitored at 332 nm
Protocol: KYNA production was monitored spectrophotometrically using a U-2810 UV–Vis spectrophotometer (Hitachi).
The transaminase abilities of KAT were assayed by measuring the rate of the KYNA production. […] KYNA production was monitored by the increase in A332 at 25°C. The quantities of KYNA were determined spectroscopically with an extinction coefficient of 9.8 mM^−1⋅cm^−1 at 332 nm.

PhKAT [2] = biological target: T1, PhKAT; assay: Isothermal titration calorimetry for cofactor and substrate binding; parameters: species or system Pyrococcus horikoshii OT3; conditions: for Kd: 2OG binding to PhKAT-PLP-KYN complex, sequential 4-site model, 35°C, pH 7.5
Excerpt: To avoid air bubbles, we degassed solutions under vacuum before use. […] Power peaks were integrated, and the resultant reaction […] were plotted against the molar cofactor and/or substrate/protein ratios and fitted using the “sequential binding sites” model according to the manufacturer's instructions with origin version 5.0 (MicroCal Software), thus yielding the dissociation constant K d.

- Ki (PhKAT [1]): 20.1 µM
- dissociation constant of first binding site in PhKAT (PhKAT [2]; 2OG binding to PhKAT-PLP complex (no KYN), judged from shape of binding curve, possibly beyond limit of ITC): approximately femtomole order
- Kd (PhKAT [2]; Kd1 (as substrate)): 0.238 µM
- Kd (PhKAT [2]; Kd3 (as allosteric effector)): 3.12 µM
- Kd (PhKAT [2]; Kd4 (as allosteric effector)): 1.09 µM
- Kd (PhKAT [2]; read-out: Kd2 (as substrate)): 15.8 µM
Compound: O=C(O)CCC(=O)C(=O)O [2OG, 2-oxoglutaric acid]
